These results are taken from ChEMBL document CHEMBL5728759, “Dual MAGL and FAAH inhibitors” (2021).

Chains of the proteins cited; added tags and fusions are not shown.
UniProt Q99685, whole entry, looked up: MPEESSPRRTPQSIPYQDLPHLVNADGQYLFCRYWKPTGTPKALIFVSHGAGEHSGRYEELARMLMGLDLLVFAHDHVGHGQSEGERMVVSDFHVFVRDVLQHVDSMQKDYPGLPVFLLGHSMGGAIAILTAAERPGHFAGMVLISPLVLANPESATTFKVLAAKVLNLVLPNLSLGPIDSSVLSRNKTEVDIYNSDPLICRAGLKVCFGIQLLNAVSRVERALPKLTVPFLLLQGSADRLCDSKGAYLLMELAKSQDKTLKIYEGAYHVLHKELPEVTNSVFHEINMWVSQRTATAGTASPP

What is called IC50 is the point on the concentration scale where inhibition reaches its midpoint.

In this assay the target is Monoglyceride lipase (Homo sapiens, UniProt Q99685). The assay is described as follows: In Vitro Competitive Activity-Based Protein Assay: Proteomes (mouse brain membrane fraction or cell lysates for mouse assays; human prefrontal cortex or cell membrane fractions for human assays) (50 μL, 1.0 mg/mL total protein concentration) were preincubated with varying concentrations of inhibitors at 37° C. After 30 min, FP—Rh or HT-01 (1.0 μL, 50 μM in DMSO) was added and the mixture was incub.

A value given as a limit tells only on which side of the number the result lay.

For `C[C@@H]1CN(Cc2cccc(C(F)(F)F)c2)CCN1C(=O)Oc1cncc(C(N)=O)c1`, the IC50 was less than 50 µM.
